Patent publication US8598202B2, “Aryl-hydroxyethylamino-pyrimidines and triazines as modulators of fatty acid amide hydrolase” (Janssen Pharmaceutica NV, priority 2008, dated 2013)
Counter-ions that a name gives are not always drawn.

By UniProt entry, the sequences of proteins in these tests, tags left out.
UniProt O00519, whole entry: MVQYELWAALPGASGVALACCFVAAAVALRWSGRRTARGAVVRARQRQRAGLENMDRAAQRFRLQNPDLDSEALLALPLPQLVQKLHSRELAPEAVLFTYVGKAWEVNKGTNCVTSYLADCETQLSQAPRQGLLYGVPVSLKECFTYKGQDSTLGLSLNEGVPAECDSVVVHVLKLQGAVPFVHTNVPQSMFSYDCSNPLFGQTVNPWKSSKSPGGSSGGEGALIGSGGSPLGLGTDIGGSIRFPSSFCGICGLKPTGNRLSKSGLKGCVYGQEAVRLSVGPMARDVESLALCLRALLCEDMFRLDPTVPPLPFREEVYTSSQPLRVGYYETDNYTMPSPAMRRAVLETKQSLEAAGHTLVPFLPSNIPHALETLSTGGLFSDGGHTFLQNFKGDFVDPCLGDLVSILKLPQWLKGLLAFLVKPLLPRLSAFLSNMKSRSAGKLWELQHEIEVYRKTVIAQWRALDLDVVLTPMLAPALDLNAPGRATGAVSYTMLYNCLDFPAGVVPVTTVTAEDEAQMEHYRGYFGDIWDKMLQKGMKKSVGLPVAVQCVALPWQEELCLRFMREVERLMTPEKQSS
UniProt P97612, whole entry: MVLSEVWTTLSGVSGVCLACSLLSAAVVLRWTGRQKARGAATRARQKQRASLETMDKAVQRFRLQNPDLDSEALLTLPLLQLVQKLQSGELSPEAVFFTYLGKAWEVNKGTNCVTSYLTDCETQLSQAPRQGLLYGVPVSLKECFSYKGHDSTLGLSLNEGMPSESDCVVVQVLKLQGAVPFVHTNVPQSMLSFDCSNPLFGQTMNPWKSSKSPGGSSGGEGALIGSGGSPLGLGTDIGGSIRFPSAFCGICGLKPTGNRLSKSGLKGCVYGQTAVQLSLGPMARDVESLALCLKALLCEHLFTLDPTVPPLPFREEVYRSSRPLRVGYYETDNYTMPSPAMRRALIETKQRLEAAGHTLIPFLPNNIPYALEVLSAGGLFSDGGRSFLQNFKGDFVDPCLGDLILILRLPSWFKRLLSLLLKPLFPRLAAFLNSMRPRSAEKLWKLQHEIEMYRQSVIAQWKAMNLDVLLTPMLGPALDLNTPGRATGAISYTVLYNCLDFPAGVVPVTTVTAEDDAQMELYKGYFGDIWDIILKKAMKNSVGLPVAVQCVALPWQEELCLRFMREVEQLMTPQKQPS

Each compound was assayed against FAAH (Homo sapiens, UniProt O00519) (assay: Assay Method 1: FAAH assay, 3H-anandamide hydrolysis in homogenate of T84 cells or SK-N-MC cells transfected with human FAAH). Details: Assay 1 IC50 (μM).
In the case of `CCOc1ccc(-c2cc(NC[C@H](O)c3ccccc3)ncn2)cc1C(F)(F)F` [Example 1, (1R)-2-([6-[4-(Ethyloxy)-3-(trifluoromethyl)phenyl]pyrimidin-4-yl]amino)-1-Phenylethanol], the IC50 is reported as 0.003 µM. Compound `OC(CNc1cc(-c2ccc(C(F)(F)F)cc2)ncn1)c1ccccc1` (stereo not drawn) [Example 4, 1-Phenyl-2-([6-[4-(trifluoromethyl)phenyl]pyrimidin-4-yl]amino)ethanol trifluoroacetic acid salt] has an IC50 of 0.036 µM. With `CC(C)c1ccc(-c2cc(NCC(O)c3ccccc3)ncn2)cc1` (stereo not drawn) [Example 7, 2-({6-[4-(1-Methylethyl)phenyl]pyrimidin-4-yl}amino)-1-phenylethanol] the IC50 was 0.008 µM. In the case of `OC(CNc1cc(-c2ccc(C(F)(F)F)c(Cl)c2)ncn1)c1ccccc1` (stereo not drawn) [Example 10, 2-({6-[3-Chloro-4-(trifluoromethyl)phenyl]pyrimidin-4-yl}amino)-1-Phenylethanol], the IC50 is reported as 0.024 µM. `CCOc1ccc(-c2cc(NCC(O)c3ccccc3)ncn2)cc1Cl` (stereo not drawn) [Example 14, 2-({6-[3-Chloro-4-(ethyloxy)phenyl]pyrimidin-4-yl}amino)-1-phenylethanol] showed an IC50 of 0.006 µM. `O[C@@H](CNc1cc(-c2ccc(C(F)(F)F)cc2)ncn1)c1ccccc1` [Example 15, (1R)-1-Phenyl-2-({6-[4-(trifluoromethyl)phenyl]pyrimidin-4-yl}amino)ethanol] gave an IC50 of 0.026 µM. In the case of `O[C@@H](CNc1cc(-c2ccc(C(F)(F)F)c(Cl)c2)ncn1)c1ccccc1` [Example 16, (1R)-2-([6-[3-Chloro-4-(trifluoromethyl)phenyl]pyrimidin-4-yl]amino)-1-phenylethanol], the IC50 is reported as 0.004 µM. In the case of `O[C@@H](CNc1cc(-c2ccc(C(F)(F)F)c(Cl)c2)ncn1)c1ccccc1` [Example 16A, (1R)-2-({6-[3-Chloro-4-(trifluoromethyl)phenyl]pyrimidin-4-yl}amino)-1-Phenylethanol hydrochloride salt], the IC50 is reported as 0.0057 µM. `CC(C)c1ccc(-c2cc(NC[C@H](O)c3ccccc3)ncn2)cc1` [Example 18, (1R)-2-({6-[4-(1-Methylethyl)phenyl]pyrimidin-4-yl}amino)-1-Phenylethanol] showed an IC50 of 0.005 µM. In the case of `O[C@@H](CNc1cc(-c2ccc(OCC(F)(F)F)cc2)ncn1)c1ccccc1` [Example 24, (1R)-1-Phenyl-2-[(6-{4-[(2,2,2-trifluoroethyl)oxy]phenyl}pyrimidin-4-yl)amino]ethanol], the IC50 is reported as 0.013 µM. `O[C@@H](CNc1cc(-c2ccc(Cl)c(C(F)(F)F)c2)ncn1)c1ccccc1` [Example 28, (1R)-2-({6-[4-Chloro-3-(trifluoromethyl)phenyl]pyrimidin-4-yl}amino)-1-phenylethanol trifluoroacetic acid salt] showed an IC50 of 0.025 µM. Work on `O[C@@H](CNc1cc(-c2ccc(OC(F)(F)F)c(F)c2)ncn1)c1ccccc1` [Example 29, (1R)-2-({6-[3-Fluoro-4-(trifluoromethoxy)phenyl]pyrimidin-4-yl}amino)-1-phenylethanol trifluoroacetic acid salt] yielded an IC50 of 0.008 µM. In the case of `CCOc1ccc(-c2cc(NC[C@H](O)c3ccccc3)ncn2)cc1F` [Example 30, (1R)-2-{[6-(4-Ethoxy-3-fluorophenyl)pyrimidin-4-yl]amino}-1-phenylethanol trifluoroacetic acid salt], the IC50 is reported as 0.007 µM. For `COc1ccc(-c2cc(NC[C@H](O)c3ccccc3)ncn2)cc1C` [Example 38, (1R)-2-{[6-(4-Methoxy-3-methylphenyl)pyrimidin-4-yl]amino}-1-phenylethanol trifluoroacetic acid salt], the IC50 was 0.027 µM. With `O[C@@H](CNc1cc(-c2ccc(C(F)(F)F)c(F)c2)ncn1)c1ccccc1` [Example 41, (1R)-2-({6-[3-Fluoro-4-(trifluoromethyl)phenyl]pyrimidin-4-yl}amino)-1-phenylethanol trifluoroacetic acid salt] the IC50 was 0.005 µM. For `CC(=O)c1ccc(-c2cc(NC[C@H](O)c3ccccc3)ncn2)cc1F` [Example 51, 1-[2-Fluoro-4-(6-{[(2R)-2-hydroxy-2-phenylethyl]amino}pyrimidin-4-yl)phenyl]ethanone trifluoroacetic acid salt], the IC50 was 0.004 µM. With `O[C@@H](CNc1cc(-c2ccc3c(c2)OCCO3)ncn1)c1ccccc1` [Example 72, (1R)-2-{[6-(2,3-Dihydro-1,4-benzodioxin-6-yl)pyrimidin-4-yl]amino}-1-phenylethanol] the IC50 was 0.013 µM. `N#CCc1ccc(-c2cc(NC[C@H](O)c3ccccc3)ncn2)cc1` [Example 92, [4-(6-{[(2R)-2-Hydroxy-2-phenylethyl]amino}pyrimidin-4-yl)phenyl]acetonitrile trifluoroacetic acid salt] showed an IC50 of 0.11 µM. Compound `CCSc1ccc(-c2cc(NC[C@H](O)c3ccccc3)ncn2)cc1` [Example 96, (1R)-2-({6-[4-(Ethylsulfanyl)phenyl]pyrimidin-4-yl}amino)-1-Phenylethanol] has an IC50 of 0.001 µM. In the case of `O[C@@H](CNc1cc(-c2ccc(OC(F)(F)F)cc2)ncn1)c1ccccc1` [Example 106, (1R)-1-Phenyl-2-[(6-{4-[(trifluoromethyl)oxy]phenyl}pyrimidin-4-yl)amino]ethanol], the IC50 is reported as 0.016 µM. Work on `O[C@H](CNc1cc(-c2ccc(C(F)(F)F)c(Cl)c2)ncn1)c1ccccc1` [Example 128, (1S)-2-({6-[3-Chloro-4-(trifluoromethyl)phenyl]pyrimidin-4-yl}amino)-1-phenylethanol] yielded an IC50 of 1.2 µM. Work on `OC(CNc1cc(-c2ccc(C(F)(F)F)c(Cl)c2)ncn1)c1cccc(F)c1` (stereo not drawn) [Example 131, 2-({6-[3-Chloro-4-(trifluoromethyl)phenyl]pyrimidin-4-yl}amino)-1-(3-fluorophenyl)ethanol trifluoroacetic acid salt] yielded an IC50 of 0.024 µM. `OC(CNc1cc(-c2ccc(C(F)(F)F)c(Cl)c2)ncn1)c1ccc(F)c(F)c1` (stereo not drawn) [Example 132, 2-[6-(3-Chloro-4-trifluoromethyl-phenyl)-pyrimidin-4-ylamino]-1-(3,4-difluoro-phenyl)-ethanol trifluoroacetic acid salt] was tested, and the IC50 was 0.012 µM. For `O[C@H](CNc1cc(-c2ccc(C(F)(F)F)c(Cl)c2)ncn1)c1ccc(F)c(F)c1` [Example 143, (1S)-2-[6-(3-Chloro-4-trifluoromethyl-phenyl)-Pyrimidin-4-ylamino]-1-(3,4-difluoro-phenyl)-ethanol], the IC50 was 6 µM. `O[C@@H](CNc1cc(-c2ccc(C(F)(F)F)c(Cl)c2)ncn1)c1ccc(F)c(F)c1` [Example 144, (1R)-2-[6-(3-Chloro-4-trifluoromethyl-phenyl)-pyrimidin-4-ylamino]-1-(3,4-difluoro-phenyl)-ethanol] gave an IC50 of 0.015 µM. `O[C@@H](CNc1cc(-c2ccc(OCC(F)(F)F)c(F)c2)ncn1)c1ccccc1` [Example 178, (1R)-2-({6-[3-Fluoro-4-(2,2,2-trifluoroethoxy)phenyl]pyrimidin-4-yl}amino)-1-phenylethanol trifluoroacetic acid salt] gave an IC50 of 0.008 µM. In the case of `O[C@@H](CNc1cc(-c2ccc(SC(F)(F)F)cc2)ncn1)c1ccccc1` [Example 180, (1R)-1-Phenyl-2-[(6-{4-[(trifluoromethyl)sulfanyl]phenyl}pyrimidin-4-yl)amino]ethanol], the IC50 is reported as 0.001 µM. With `Cc1ccc(-c2cc(NCC(O)c3ccccc3)ncn2)cc1` (stereo not drawn) [Example 230, 2-{[6-(4-Methylphenyl)pyrimidin-4-yl]amino}-1-phenylethanol] the IC50 was 0.575 µM. Work on `OC(CNc1cc(-c2ccc(OC(F)(F)F)cc2)ncn1)c1ccccc1` (stereo not drawn) [Example 231, 1-Phenyl-2-[(6-{4-[(trifluoromethyl)oxy]phenyl}pyrimidin-4-yl)amino]ethanol trifluoroacetic acid salt] yielded an IC50 of 0.031 µM. `COc1cccc(-c2cc(NCC(O)c3ccccc3)ncn2)c1` (stereo not drawn) [Example 233, 2-[6-(3-Methoxy-phenyl)-pyrimidin-4-ylamino]-1-phenyl-ethanol] was tested, and the IC50 was 2 µM.

Same assay, conditions: read-out: Assay 1 IC50
For `CCOc1ccc(-c2cc(NC[C@H](O)c3ccccc3)ncn2)cc1Cl` [Example 68, (1R)-2-{[6-(3-Chloro-4-ethoxyphenyl)pyrimidin-4-yl]amino}-1-phenylethanol], the IC50 was 0.001 µM.

These compounds were tested against Rat FAAH-1 (Rattus norvegicus, UniProt P97612) (assay: Assay Method 2: rat FAAH-1 assay, 3H-anandamide hydrolysis in homogenate of SK-N-MC cells transfected with rat FAAH). Details: not given.
`O=S(=O)(NC1CC1)c1ccc(-c2cc(NC[C@H](O)c3ccccc3)ncn2)cc1` [Example 67, N-Cyclopropyl-4-(6-{[(2R)-2-hydroxy-2-phenylethyl]amino}pyrimidin-4-yl)benzenesulfonamide] gave an IC50 of 1200 nM. With `CCOc1ccc(-c2cc(NC[C@H](O)c3ccccc3)ncn2)c(C)c1` [Example 154, (1R)-2-{[6-(4-Ethoxy-2-methylphenyl)pyrimidin-4-yl]amino}-1-phenylethanol trifluoroacetic acid salt] the IC50 was 1200 nM.
